The values that follow are results of earlier work, collected in PMC6719874 (PLoS ONE, 2019).

The chains behind the UniProt entries cited, without tags or fusion partners.
UniProt Q12809, whole entry Y652A: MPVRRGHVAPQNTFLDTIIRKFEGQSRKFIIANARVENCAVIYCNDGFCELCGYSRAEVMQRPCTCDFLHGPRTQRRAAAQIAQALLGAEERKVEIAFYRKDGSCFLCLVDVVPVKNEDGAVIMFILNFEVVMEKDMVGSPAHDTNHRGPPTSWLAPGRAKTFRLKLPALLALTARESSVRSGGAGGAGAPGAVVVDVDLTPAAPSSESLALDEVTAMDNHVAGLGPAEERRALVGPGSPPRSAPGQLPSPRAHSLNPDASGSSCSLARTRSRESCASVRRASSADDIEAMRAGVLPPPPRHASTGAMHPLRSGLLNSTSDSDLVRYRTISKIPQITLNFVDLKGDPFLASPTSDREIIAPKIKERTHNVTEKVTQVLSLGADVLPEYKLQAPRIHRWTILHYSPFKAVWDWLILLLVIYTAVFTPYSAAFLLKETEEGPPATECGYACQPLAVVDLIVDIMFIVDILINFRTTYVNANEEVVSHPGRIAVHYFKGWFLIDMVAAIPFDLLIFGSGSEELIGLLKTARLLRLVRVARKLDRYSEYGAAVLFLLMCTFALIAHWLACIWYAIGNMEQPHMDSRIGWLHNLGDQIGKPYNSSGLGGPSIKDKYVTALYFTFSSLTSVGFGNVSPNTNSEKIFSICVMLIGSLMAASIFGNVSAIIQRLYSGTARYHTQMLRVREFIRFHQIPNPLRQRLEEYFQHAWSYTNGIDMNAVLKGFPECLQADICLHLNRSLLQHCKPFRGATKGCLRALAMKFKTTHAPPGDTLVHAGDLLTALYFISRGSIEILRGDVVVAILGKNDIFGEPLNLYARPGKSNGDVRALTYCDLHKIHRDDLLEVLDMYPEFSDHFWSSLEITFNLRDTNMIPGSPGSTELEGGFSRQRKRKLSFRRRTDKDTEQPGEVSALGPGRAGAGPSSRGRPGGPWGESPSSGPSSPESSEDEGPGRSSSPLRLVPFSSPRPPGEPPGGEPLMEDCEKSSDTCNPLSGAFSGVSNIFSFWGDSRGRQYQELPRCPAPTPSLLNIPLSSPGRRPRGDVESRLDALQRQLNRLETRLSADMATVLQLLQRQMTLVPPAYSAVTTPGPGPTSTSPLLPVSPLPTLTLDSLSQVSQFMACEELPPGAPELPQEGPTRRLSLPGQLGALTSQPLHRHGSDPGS

The target of this data set is T1, Y652A hERG (Homo sapiens, UniProt Q12809, Y652A).
T1 construct: host or cells: Xenopus laevis oocytes injected with cRNA
The settings on record: for fold increased IC50 in presence of Y652A mutation: range given for the group of drugs ref 58.

On to `CN(CCOc1ccc(NS(C)(=O)=O)cc1)CCc1ccc(NS(C)(=O)=O)cc1` [dofetilide], for which the “fold increased IC50 in presence of Y652A mutation” value (“fold increased IC50 in presence” for short) is 40–650 fold. `CS(=O)(=O)Nc1ccc2c(c1)[C@H](O)CC1(CCN([C@@H]3CCc4cc(C#N)ccc4C3)CC1)O2` [MK-499]: the “fold increased IC50 in presence” value is recorded as 40–650 fold.

In the case of `COc1cc(N)c(Cl)cc1C(=O)NC1CCN(CCCOc2ccc(F)cc2)CC1OC` (stereo not shown) [cisapride], the “fold increased IC50 in presence” value is 40–650 fold. As to `CC(C)COCC(CN(Cc1ccccc1)c1ccccc1)N1CCCC1` (stereo not shown) [bepridil], the “change of IC50 in the Y652A mutant” value is “only a slight increase in IC50”.
